The text below walks through data of patent publication US20110311555A1 (OHIO STATE UNIVERSITY, published 2011).

By UniProt entry, the sequences of proteins in these tests, tags left out. Residues count along the entry.
UniProt B2RWS6, 2-2412 limits assumed: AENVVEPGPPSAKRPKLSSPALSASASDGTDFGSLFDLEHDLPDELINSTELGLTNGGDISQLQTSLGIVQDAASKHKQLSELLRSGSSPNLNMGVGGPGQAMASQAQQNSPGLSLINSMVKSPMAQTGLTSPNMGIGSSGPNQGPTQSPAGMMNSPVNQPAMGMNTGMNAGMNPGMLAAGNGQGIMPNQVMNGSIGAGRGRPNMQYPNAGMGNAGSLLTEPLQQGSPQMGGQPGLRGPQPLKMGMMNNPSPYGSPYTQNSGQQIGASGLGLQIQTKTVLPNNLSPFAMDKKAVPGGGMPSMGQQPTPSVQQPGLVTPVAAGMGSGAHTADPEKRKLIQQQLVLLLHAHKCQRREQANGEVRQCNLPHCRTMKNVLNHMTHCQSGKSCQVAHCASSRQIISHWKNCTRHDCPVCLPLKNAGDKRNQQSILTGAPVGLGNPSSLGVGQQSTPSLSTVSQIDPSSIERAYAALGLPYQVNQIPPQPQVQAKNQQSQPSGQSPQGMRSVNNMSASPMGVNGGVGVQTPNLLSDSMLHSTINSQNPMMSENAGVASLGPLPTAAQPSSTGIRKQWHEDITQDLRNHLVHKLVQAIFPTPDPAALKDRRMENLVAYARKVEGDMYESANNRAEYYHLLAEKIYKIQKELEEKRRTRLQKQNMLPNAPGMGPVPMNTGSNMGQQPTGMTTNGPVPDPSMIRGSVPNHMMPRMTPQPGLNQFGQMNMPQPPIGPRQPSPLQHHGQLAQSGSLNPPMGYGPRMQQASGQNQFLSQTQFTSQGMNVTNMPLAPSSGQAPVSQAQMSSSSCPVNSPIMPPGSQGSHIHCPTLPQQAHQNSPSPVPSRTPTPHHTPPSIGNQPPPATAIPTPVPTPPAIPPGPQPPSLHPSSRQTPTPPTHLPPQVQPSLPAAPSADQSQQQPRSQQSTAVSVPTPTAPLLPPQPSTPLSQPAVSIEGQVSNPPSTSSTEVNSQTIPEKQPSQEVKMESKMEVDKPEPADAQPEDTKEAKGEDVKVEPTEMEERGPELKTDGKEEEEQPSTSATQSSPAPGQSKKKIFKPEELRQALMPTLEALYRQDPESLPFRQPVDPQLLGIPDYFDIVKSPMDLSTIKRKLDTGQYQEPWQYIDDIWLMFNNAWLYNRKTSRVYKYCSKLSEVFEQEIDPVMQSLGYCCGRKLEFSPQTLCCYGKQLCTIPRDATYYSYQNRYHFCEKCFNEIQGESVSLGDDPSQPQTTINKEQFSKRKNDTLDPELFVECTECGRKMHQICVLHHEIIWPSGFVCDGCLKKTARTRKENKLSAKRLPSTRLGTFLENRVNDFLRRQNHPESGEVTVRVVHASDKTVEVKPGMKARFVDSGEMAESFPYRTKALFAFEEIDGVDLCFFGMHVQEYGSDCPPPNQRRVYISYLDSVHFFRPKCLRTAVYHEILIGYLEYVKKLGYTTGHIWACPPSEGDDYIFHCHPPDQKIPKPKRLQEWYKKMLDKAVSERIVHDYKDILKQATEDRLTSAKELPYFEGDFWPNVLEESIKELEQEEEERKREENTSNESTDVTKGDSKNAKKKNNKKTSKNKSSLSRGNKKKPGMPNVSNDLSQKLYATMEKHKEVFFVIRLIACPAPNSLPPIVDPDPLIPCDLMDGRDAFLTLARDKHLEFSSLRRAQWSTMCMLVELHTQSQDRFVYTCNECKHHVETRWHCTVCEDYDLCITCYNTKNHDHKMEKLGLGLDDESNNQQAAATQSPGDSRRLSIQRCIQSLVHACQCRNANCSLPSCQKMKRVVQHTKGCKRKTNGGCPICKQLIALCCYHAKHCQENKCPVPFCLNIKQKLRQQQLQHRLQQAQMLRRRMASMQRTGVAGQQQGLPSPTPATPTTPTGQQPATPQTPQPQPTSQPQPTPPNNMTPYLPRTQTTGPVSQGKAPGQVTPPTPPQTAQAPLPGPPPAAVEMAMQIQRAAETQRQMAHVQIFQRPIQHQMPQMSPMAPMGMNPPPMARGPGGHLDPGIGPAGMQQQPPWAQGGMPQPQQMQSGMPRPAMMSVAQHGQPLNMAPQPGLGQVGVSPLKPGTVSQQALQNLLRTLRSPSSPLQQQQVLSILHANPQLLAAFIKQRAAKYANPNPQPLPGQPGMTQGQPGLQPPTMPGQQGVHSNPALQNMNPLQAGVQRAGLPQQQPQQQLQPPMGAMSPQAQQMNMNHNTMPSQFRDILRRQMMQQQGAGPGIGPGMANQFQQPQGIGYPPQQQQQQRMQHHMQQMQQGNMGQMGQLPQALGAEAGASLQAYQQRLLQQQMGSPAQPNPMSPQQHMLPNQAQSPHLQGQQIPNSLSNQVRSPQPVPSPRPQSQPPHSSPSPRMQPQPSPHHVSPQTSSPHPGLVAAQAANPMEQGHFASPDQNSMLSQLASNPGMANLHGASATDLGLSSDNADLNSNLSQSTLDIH
UniProt P01100, whole entry: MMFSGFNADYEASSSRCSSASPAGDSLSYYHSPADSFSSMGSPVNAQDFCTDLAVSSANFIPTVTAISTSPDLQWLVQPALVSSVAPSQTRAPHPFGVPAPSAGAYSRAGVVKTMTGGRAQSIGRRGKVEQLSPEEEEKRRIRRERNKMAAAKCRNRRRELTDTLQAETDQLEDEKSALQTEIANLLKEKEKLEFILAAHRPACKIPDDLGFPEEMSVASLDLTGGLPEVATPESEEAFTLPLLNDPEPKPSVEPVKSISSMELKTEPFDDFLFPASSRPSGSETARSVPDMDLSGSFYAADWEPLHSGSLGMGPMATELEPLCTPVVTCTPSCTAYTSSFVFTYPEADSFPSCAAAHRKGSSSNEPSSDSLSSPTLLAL
UniProt P05412, whole entry: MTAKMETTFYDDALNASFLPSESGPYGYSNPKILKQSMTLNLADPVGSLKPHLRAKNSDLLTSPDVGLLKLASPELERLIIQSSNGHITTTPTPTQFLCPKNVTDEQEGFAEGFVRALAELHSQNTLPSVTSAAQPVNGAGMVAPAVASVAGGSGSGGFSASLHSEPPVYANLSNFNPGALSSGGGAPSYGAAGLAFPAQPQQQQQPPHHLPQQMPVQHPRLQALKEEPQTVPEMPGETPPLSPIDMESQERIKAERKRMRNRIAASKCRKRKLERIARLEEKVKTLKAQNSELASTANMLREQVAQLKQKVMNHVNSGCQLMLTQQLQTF

Common to all, as to assay: cell-based or functional assay
Test [1] deals with p300 of the NIH 3T3 reporter cells (endogenous) (UniProt B2RWS6).
The target of test [2] is c-Fos-V5 (construct bought from Invitrogen) (UniProt P01100).
In test [3] the target is c-Jun (expression construct in pCMV-SPORT6 vector, ATCC) (UniProt P05412).
In test [4] the target is T1, JunB (expression construct in pCMV-SPORT6 vector, ATCC) (UniProt P17275 1-347).
T1 sequence (looked up): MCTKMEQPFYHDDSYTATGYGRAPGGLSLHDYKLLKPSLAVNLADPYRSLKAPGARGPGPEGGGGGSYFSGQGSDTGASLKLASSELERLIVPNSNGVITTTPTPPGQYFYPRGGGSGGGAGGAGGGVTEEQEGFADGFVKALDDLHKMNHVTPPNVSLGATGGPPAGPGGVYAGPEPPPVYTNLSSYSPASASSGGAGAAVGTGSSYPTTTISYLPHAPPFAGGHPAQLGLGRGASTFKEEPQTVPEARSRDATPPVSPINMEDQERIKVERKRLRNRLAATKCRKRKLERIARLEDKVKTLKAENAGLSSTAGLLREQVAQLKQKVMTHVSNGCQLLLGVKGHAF

B1: Tcl1 WT (pCMV5-TCL1 WT construct, full-length human TCL1 ORF) (other, UniProt P56279 1-114, looked up)
chain: MAECPTLGEAVTDHPDRLWAWEKFVYLDEKQHAWLPLTIEIKDRLQLRVLLRREDVVLGRPMTPTQIGPSLLPIMWQLYPDGRYRSSDSSFWRLVYHIKIDGVEDMLLELLPDD
As to B1, the “NF-κB activity (pNF-κB-Luc reporter, NIH 3T3 cells) in the presence of wortmannin, fold activation” value in test [1] is > 4 fold.

B2: Tcl1 T38I (pCMV5-TCL1 T38I construct) (other, human, UniProt P56279 1-114, looked up)
chain: MAECPTLGEAVTDHPDRLWAWEKFVYLDEKQHAWLPLIIEIKDRLQLRVLLRREDVVLGRPMTPTQIGPSLLPIMWQLYPDGRYRSSDSSFWRLVYHIKIDGVEDMLLELLPDD
Turning to B2, in test [2], the “AP-1 reporter (pAP-1-Luc) activated by overexpression of c-Fos alone, 293 cells; inhibition against WT Tcl1” value is ~2 fold more effectively than WT Tcl1. Moreover, the “AP-1 reporter (pAP-1-Luc) activated by overexpression of c-Jun alone, 293 cells; inhibition against WT Tcl1” value in test [3] was ~2 fold more effectively than WT Tcl1. The “AP-1 reporter (pAP-1-Luc) activated by overexpression of JunB alone, 293 cells; inhibition against WT Tcl1” value in test [4] is ~2 fold more effectively than WT Tcl1.
